One data set has as its target SH2-V637A (Homo sapiens, UniProt P40763, V637A). In words: MST binding to STAT3-SH2 mutant V637A. An excerpt: STAT1 (amino acid residues 127–716), STAT2 (amino acid residues 138–702), STAT3 (amino acid residues 127–722), STAT4 (amino acid residues 133–705), STAT5B (amino acid residues 136–703) and STAT6 (amino acid residues 113–658) were cloned into the pET28A vector. STAT3-SH2 (amino acid residues 586–685) and the mutants of the STAT3-SH2 produced by site-directed mutagenesis were also cloned into the pET28A vector. All recombinant human fusion proteins were expressed in E. coli BL21 (DE3). Then, according to different induction conditions, the protein expression was induced. During the induction of the expression of STAT3-SH2 and all the mutants, STAT1, STAT2, STAT3 and STAT6, when the OD value reached about 0.6–1.0, the E. coli was transferred to 22 °C and 0.5 mM Isopropyl β-D-1-thiogalactopyranoside (IPTG) was added. For the expression of STAT4 and STAT5B when the OD value reached about 0.5–0.6, the E. coli was transferred to 30 °C for 2.5–3 h and 0.2 mM IPTG was added.
Microscale thermophoresis (MST) was conducted as previously described.[28] Binding affinities of YY002, Stattic against purified STAT3^127–722 and STAT3-SH2 protein or YY002 against STAT3-SH2 WT and mutants were measured by a Monolith NT.115 (Nanotemper Technologies). […] The samples were then loaded into premium capillaries (NanoTemper Technologies) and measured at 25 °C using 20%–40% LED power and medium MST power. […]

Sequences of proteins named here, by UniProt entry; tags and fusion partners are left off. Residues count along the entry.
UniProt P40763, 586-685 V637A limits assumed: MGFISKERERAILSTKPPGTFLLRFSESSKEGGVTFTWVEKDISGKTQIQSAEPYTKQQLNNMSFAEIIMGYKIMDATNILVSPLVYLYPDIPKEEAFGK

Data set [1] has as its system STAT3 nuclear translocation. Description: Immunofluorescence of STAT3 nuclear translocation. The following applies: IL6 stimulated. As to the method:
BxPC-3 and Capan-2 cells were cultured on glass coverslips at a density of 10^5 per well of 24-well plate. After treating with YY002 for 24 h, IL-6 was added for 30 min stimulation. Then, the culture medium was removed, and the cell slides were fixed with 4% paraformaldehyde for 15 min and permeated by 0.2%Triton X-100 for 20 min. Next, after PBS wash and blocking in 0.5% BSA, primary antibodies were added to incubate with cells overnight at 4 °C, and then, cells were incubated with corresponding secondary antibodies for 1 h at room temperature. Finally, DAPI was added and a confocal microscope (Leica) was used to record images.

Data set [2] deals with STAT3 Tyr705 and Ser727 phosphorylation. Description: Western blot of STAT3 phosphorylation. The following applies: Capan-2, HPAC and BxPC-3 cells. The protocol: Pancreatic cancer cells were lysed in RIPA buffer supplemented with 1 mM phenylmethylsulfonyl fluoride (PMSF), a proteinase inhibitor cocktail and a phosphatase inhibitor cocktail (Sigma). Lysates were separated by 8–12% sodium dodecyl sulfate-polyacrylamide gel electrophoresis (SDS-PAGE) and transferred to nitrocellulose. The blots were probed with specific antibodies followed by a secondary antibody, and then membranes were examined by the LI-COR Odyssey infrared imaging system (LI-COR Biotechnology, Lincoln NE). The antibodies used and their technical information are listed in Supplementary Table S2.
For orientation: Immunoblotting shows a protein as a band on a membrane.

Data set [3] is described as follows: Liver microsome stability, dog.
A further data set in a line: Pharmacokinetics in mice. As to the method:
To evaluate the antitumor effect of YY002 in vivo, we first determined the pharmacokinetic properties of YY002. The plasma exposure and pharmacokinetic parameters were detected following oral and intravenous administration at 10 and 1 mg/kg, respectively. The Cmax of YY002 was 4307.80 ng/mL in mice under oral administration. The t1/2 value of oral administration of YY002 was 14.30 h. After intravenous administration, YY002 Cmax was 8154.40 ng/mL at a mean t1/2 of 16.60 h (Supplementary Figure S5A).

The next data set relates to ROS levels in PDAC cells. In words: Reactive oxygen species (ROS) assay. The following applies: 20 h. As to the method: Luciferase reporter assay
The HEK293T cells were seeded in 24-well plates, The 500 ng STAT3 luciferase […]
mutation plasmids and 10 ng Renilla plasmids were co-transfection into each well of
plates with Lipofectamine 2000 reagent (Invitrogen) and incubated for 20-24 h. Then,
the cells were added with IL-6 (20 ng/mL). Luciferase assays were performed by using
the Dual Luciferase Reporter Assay System (Promega) according to manufacturer’s
instructions. The firefly luciferase activities were normalized against Renilla luciferase
Mitochondrial membrane potential assay
Mitochondrial membrane potential was assessed following the manufacturer's
instructions (Beyotime, C2006). Briefly, the cells were seeded in 6-well plates, YY002
treated for 24h. Then the cells were washed with PBS and incubated with JC‐1 probe
in 1× dye working buffer for 20 min at 37°C. After washing with cleaning buffer,
JC‐1 monomers and JC‐1 aggregates were detected with Flow cytometry to indicate
mitochondrial membrane potential.
Reactive Oxygen Species (ROS) Assay
ROS assay was performed following the manufacturer's instructions (Beyotime,
S0033S). Briefly, the pancreatic cancer cells were seeded in 6-well plates, YY002
treated for 20h. Then the cells were wash with cold PBS for three times. Dilute 2',7'- […]
DCFH-DA that has not entered the cells. ROS signal was detected by FACS. […]

The subject of a further data set is PAN02-luciferase cells. In words: Orthotopic pancreatic cancer model (PAN02).

For the molecule `Cn1c(C(=O)N2CCN(Cc3ccc(OCC(F)(F)F)cc3)CC2)cc2ccc(Oc3cnc(-c4nc(-c5ccc(C(F)(F)F)cc5)no4)cn3)cc21`, at SH2-V637A, the “Binding affinities (nM)” value is listed as “did not bind”. The STAT3 nuclear translocation result in data set [1] is listed as “significantly inhibited STAT3 nuclear translocation”. In addition, the “Inhibition of STAT3 phosphorylation” value in data set [2] is “concurrent inhibition of STAT3 Tyr705 and Ser727 phosphorylation”. Also, in data set [3], the “Liver Microsomes t1/2” value is above 2 h. Further, in “Pharmacokinetics in mice” (iv 1 mg/kg), the AUC0-24 amounted to 28492.8 ng·h/mL, the “AUC0-∞” value is 31926.9 ng·h/mL, the CL came to 0.522 mL/min/kg and the Cmax is 8154.40 ng/mL. In the data set “Pharmacokinetics in mice” (iv 1 mg/kg), the MRT0-t is 12.7 h and the Vd amounted to 0.616 L/kg. Also, the t1/2 in the data set “Pharmacokinetics in mice” (iv 1 mg/kg, 1 mg/kg) is 13.6 h. Also, in “Pharmacokinetics in mice” (po 10 mg/kg), the AUC0-24 is 89145.2 ng·h/mL, the “AUC0-∞” value was determined as 102082.3 ng·h/mL, the CL turned out to be 1.63 mL/min/kg and the Cmax was 4307.80 ng/mL. In the data set “Pharmacokinetics in mice” (po 10 mg/kg), the MRT0-t came out at 15.0 h, the Vd was determined as 2.0187 L/kg and the t1/2 is 14.30 h. In addition, in “Pharmacokinetics in mice” (po 10 mg/kg, 10 mg/kg), the “F (AUC0-t), oral bioavailability” value is recorded as 31.3%. In the data set on ROS levels in PDAC cells, the ROS levels result is “significantly increased ROS levels”. Also, the “Survival of tumor-bearing mice” value with PAN02-luciferase cells (independent experiment) was “significantly prolonged the survival”. Further, the “Tumor growth and metastasis (bioluminescence)” value in the data set on PAN02-luciferase cells (orally for 4 weeks) was “inhibited tumor growth and metastasis in a concentration-dependent manner”.

A word on the Cmax: it is the highest concentration seen after dosing.

These data come from paper PMC10979493.
